High-throughput results as filed in PubChem.
Nrf2 inh = inhibitors of Nrf2 signaling. 360,000 tested, 2.1% active. Potency, µM (top dose mostly 46 µM), inactives show at the highest dose activity change, negative = inhibition, hits mostly inhibitors. A549 ARE-Fluc reporter, luciferase luminescence, 18-24 h; note: potency is the fitted concentration of half-maximal effect; % is set by controls: 0 for no effect and ±100 for the full control effect; nearly all actives have a fitted effect of over 60% in size
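A549 ARE_Fluc cells (5000/well, 5% FBS OPTI-MEM) pre-incubated 2 h, then treated with compounds 18-24 h at 37C/5% CO2 in concentration-response. CellTiter-Fluor viability read first; BugLite luciferase luminescence after 15 min at room temperature gives Nrf2 activity.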
GRP78 ERSR act = inducers of ER stress response in human glioma cells; 420,000 tested, 0.02% active; Potency, µM, without a hit: at the highest dose activation, usual class: activators; U87-MG GRP78 promoter luciferase reporter, 16 h; note: potency is the fitted concentration of half-maximal effect; series mostly up to about 76 µM; % of control where 0% means no effect; nearly all actives have a fitted effect of over 35% in size
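ERSR induction read as luciferase luminescence (Bright-Glo, 10 min at room temperature) in stably transfected human U87-MG glioma cells exposed to compounds for 16 h, using GRP78 as sensor.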
Nrf2 activator = activates Nrf2 signaling. AREc32 ARE-luciferase reporter (MCF7-derived line), luminescence, 24 h. Potency, µM (top dose mostly 46.1 µM), without a hit: at the highest dose activation, usual class: activators. 410,000 tested, 0.31% active; note: potency is the fitted concentration of half-maximal effect; % of control where 0% means no effect; nearly all actives have a fitted effect of over 65% in size
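For detection, Steady-Glo was added and plates sat 30 min at RT; before that, AREc32_Fluc cells grown overnight in OPTI-MEM/5% FBS had been treated with 23 nL compound for 24 hr at 37 deg C.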
A549 viability = A549 cytotoxicity, counter-screen for Nrf2 inhibitors; AID 504648; A549 ARE-Fluc cells, CellTiter-Fluor viability, 18-24 h; Potency, µM (doses to about 46 µM), inactives show at the top dose activity change, negative = cytotoxicity, most hits filed as inhibitors; 390,000 tested, 0.16% active; note: potency is the fitted concentration of half-maximal effect; % is set by controls: 0 for no effect and ±100 for the full control effect
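A549 ARE-Fluc cells in 5% FBS OPTI-MEM, 5000 cells/well, rested 2 h then exposed to compounds in concentration-response for 18-24 h at 37 °C. Viability by CellTiter-Fluor fluorescence (Ex 405/Em 525) after 30 min; luciferase luminescence (BugLite, 15 min, RT) read afterwards.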
TSG101-PTAP inh = blocks PTAP/TSG101 interaction to inhibit HIV-1 budding; Q99816; Fluorescence polarization, FITC-PTAP peptide / Tsg101 binding; Potency, µM (top dose mostly 115 µM), inactives show at the top dose activity change, negative = inhibition, hits mostly inhibitors; 340,000 tested, under 10 active; active = well fitted inhibition curve with a large enough effect in the main read-out, with a control signal flat, not every such curve was filed as active; inconclusive = small, poorly fitted or top-dose-only effect, or effect the other way, or a change in a side signal; inactive = no such curve, though single readings can be large or run the other way; note: potency is the fitted concentration of half-maximal effect; % of control where 0% means no effect
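Compounds were pin-transferred onto Tsg101 binding domain (10 uM final) in HEPES pH 7.5 buffer, then FITC-PTAP peptide was added at 50 nM final. After 20 min at RT, polarization reported peptide displacement across a qHTS concentration series.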
miR-21 FLuc = raises the signal of a miR-21 reporter; HeLa miR-21 FLuc reporter, luciferase, 48 h; Potency, µM (highest dose often 38.3 µM), inactives show at the highest dose reporter change, positive = more light; 340,000 tested, under 10 active; active = well fitted rising curve with a large enough effect; inconclusive = small, poorly fitted or top-dose-only effect; inactive = no such curve, though single readings can be large or run the other way;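 note: % of control where 0% means no effect; miR-21 action dims this reporter so a rising signal means less miR-21 action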
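HeLa miR-21-FLuc reporter line, endogenous miR-21; 2000 cells/well in DMEM/10% FBS; compound titration up to ~40uM final, 48 h, 37 degree Celsius; luciferase detection reagent, 15 min lysis, CCD luminescence.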
Active calls of the source: *; ? = inconclusive; . = not tested or not shown. A selection: hits, their analogues and other compounds. The true share with any hit is near 2.1%. Unless noted, calls come from the whole dose curve; as a rule, active = well fitted curve in the direction sought with a large enough effect; inconclusive = small, poorly fitted or top-dose-only effect, or another doubt; inactive = no such curve, though single readings can be large; an effect the other way counts as inactive or inconclusive.

(1) COc1cc(=O)n2c(c1C(=O)NC(C)c1ccco1)CCN(Cc1ccccc1C(F)(F)F)CC2 (configuration not stated)
(2) Cc1ncc2c(c1CNC(=O)c1ccccc1F)CCN(C(=O)c1[nH]c3ccc(Cl)cc3c1C)C2
(3) CC/C(=C/c1ccccc1OC)c1cc(-c2ccccc2)cc2oc3ccccc3c12
(4) O=S(=O)(c1ccc(Br)cc1)N1CCN(S(=O)(=O)c2ccc3c(c2)OCCO3)CC1
(5) O=C(N/N=C/c1ccc([N+](=O)[O-])s1)c1ccncc1
(6) CCOC(=O)N/N=C\c1ccc([N+](=O)[O-])s1
(7) O=C(N/N=C/c1ccc([N+](=O)[O-])s1)c1cccc(Br)c1
(8) CC(C)(C)OC(=O)N/N=C\c1ccc([N+](=O)[O-])s1

| Compound | 1 | 2 | 3 | 4 | 5 | 6 | 7 | 8 |
| --- | --- | --- | --- | --- | --- | --- | --- | --- |
| TSG101-PTAP inh | . | . | . | . | -0.6% | 0.1% | 1.8% | -0.5% |
| Nrf2 inh | . | . | . | 15.8% | ? | 23.1µM* | 20.6µM* | -13.4% |
| miR-21 FLuc | . | . | . | . | 26.6% | 29.8% | ? | 6.5% |
| A549 viability | . | . | . | -3.1% | -10.1% | ? | ? | -6.8% |
| Nrf2 activator | . | . | . | . | ? | -0.8% | 0.0% | 11.2% |
| GRP78 ERSR act | -3.1% | -3.9% | -4.7% | . | ? | 1.8% | -9.3% | -6.0% |

Some of the entries above in a different format:
nr	SMILES	TSG101-PTAP inh	Nrf2 inh	miR-21 FLuc	A549 viability	Nrf2 activator	GRP78 ERSR act
8	CC(C)(C)OC(=O)N/N=C\c1ccc([N+](=O)[O-])s1	-0.5%	-13.4%	6.5%	-6.8%	11.2%	-6.0%
3	CC/C(=C/c1ccccc1OC)c1cc(-c2ccccc2)cc2oc3ccccc3c12	.	.	.	.	.	-4.7%
4	O=S(=O)(c1ccc(Br)cc1)N1CCN(S(=O)(=O)c2ccc3c(c2)OCCO3)CC1	.	15.8%	.	-3.1%	.	.

Going on with the list.
(9) CCOC(=O)CCC(=O)OC1C(OC2C(C)C(OC3CC(C)(OC)C(O)C(C)O3)C(C)C(=O)OC(CC)C(C)(O)C(O)C(C)C(=O)C(C)CC2(C)O)OC(C)CC1N(C)C (configuration not stated)
(10) CN(C(=O)c1ccc(NC(=O)Cc2ccc(NC(=O)C3CCCN(C(=O)CCc4ccccc4)C3)cc2)cc1)C1CCCC1 (configuration not stated)
(11) CN(C(=O)c1cccc(NC(=O)Cc2ccc(NC(=O)C3CCCN(C(=O)CCc4ccccc4)C3)cc2)c1)C1CCCCC1 (configuration not stated)
(12) CN(Cc1ccccc1)C(=O)c1cccc(NC(=O)Cc2ccc(NC(=O)C3CCN(C(=O)CCc4ccccc4)CC3)cc2)c1
(13) CN(C(=O)c1cccc(NC(=O)Cc2ccc(NC(=O)C3CCCN(C(=O)CCc4ccccc4)C3)cc2)c1)C1CC1 (configuration not stated)
(14) COc1cccc(C(=O)Nc2ccc(N3CCN(C(=O)c4cccs4)CC3)cc2)c1
(15) CCCC(=O)NC(=S)Nc1ccc(NC(=O)c2cccs2)cc1
(16) CCCC(=O)NC(=S)Nc1ccc(N2CCN(C(=O)c3cccs3)CC2)cc1

| Compound | 9 | 10 | 11 | 12 | 13 | 14 | 15 | 16 |
| --- | --- | --- | --- | --- | --- | --- | --- | --- |
| TSG101-PTAP inh | . | -4.6% | 7.3% | 3.2% | -2.1% | -2.3% | -6.2% | 0.4% |
| Nrf2 inh | . | 23.1µM* | 10.3µM* | 16.4µM* | ? | 20.6µM* | 6.2% | 14.6µM* |
| miR-21 FLuc | . | . | . | . | . | 28.6% | -5.6% | 9.3% |
| A549 viability | . | -6.5% | -11.8% | -16.7% | -3.2% | ? | -2.5% | -17.3% |
| Nrf2 activator | . | 3.6% | 4.5% | 4.1% | 6.3% | -0.6% | -0.1% | 0.0% |
| GRP78 ERSR act | -2.5% | -0.1% | -1.3% | -4.6% | 2.6% | -3.7% | -6.0% | -1.8% |

(17) Cc1ncc2c(c1CNS(=O)(=O)N(C)C)CCN(C(=O)/C=C/c1ccccc1F)C2
(18) O=C(C[n+]1cccc2cccc(O)c21)c1ccc(F)cc1
(19) Cc1ccc(Nc2nc(-c3ccc(S(=O)(=O)N4CCCC4)cc3)cs2)cc1C
(20) O=S(=O)(c1ccc(-c2csc(Nc3ccc(F)cc3)n2)cc1)N1CCCC1
(21) Cc1cc(C)cc(Nc2nc(-c3ccc(S(=O)(=O)N4CCCC4)cc3)cs2)c1
(22) O=S(=O)(c1ccc(-c2csc(Nc3ccc(Br)cc3)n2)cc1)N1CCCC1
(23) Cn1c(/C=C/c2ccc(Cl)cc2Cl)c([N+](=O)[O-])c(=O)n(C)c1=O
(24) CCOc1ccc(/C=C/c2c([N+](=O)[O-])c(=O)n(C)c(=O)n2C)cc1

| Compound | 17 | 18 | 19 | 20 | 21 | 22 | 23 | 24 |
| --- | --- | --- | --- | --- | --- | --- | --- | --- |
| TSG101-PTAP inh | . | . | -6.2% | -3.1% | -10.0% | -1.5% | -3.9% | 0.2% |
| Nrf2 inh | . | . | . | 18.4µM* | ? | 8.2µM* | 25.9µM* | -16.5% |
| miR-21 FLuc | . | . | 12.6% | 9.3% | 26.4% | 4.8% | ? | 16.6% |
| A549 viability | . | . | ? | -29.1% | 1.6% | -15.7% | ? | ? |
| Nrf2 activator | . | . | 3.0% | 2.5% | -1.4% | -0.6% | ? | ? |
| GRP78 ERSR act | -2.2% | -4.3% | 0.4% | -7.4% | -6.4% | -8.2% | -4.2% | -1.7% |
